Source: PubChem BioAssay
Compounds with a hit are over-represented: about 3.7% of the library has one in this group of screens.
Nrf2 block: inhibitors of Nrf2 signaling | A549 ARE-Fluc reporter, luciferase luminescence, 18-24 h | hit rate 2.1% among 360,000 | Potency, µM (top dose mostly 46 µM), inactives show at the top dose activity change, negative = inhibition, actives largely listed as inhibitors | AID 504444; note: potency is the fitted concentration of half-maximal effect; % is set by controls: 0 for no effect and ±100 for the full control effect; nearly all actives have a fitted effect of over 60% in size
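Nrf2 activity is the BugLite luminescence, read 15 min after reagent at room temperature, following CellTiter-Fluor cytotoxicity readout (30 min, 37C). Compound titrations were applied for 18-24 h to 5000 A549 ARE_Fluc cells/well in 5% FBS OPTI-MEM.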
IL-2 act: IL-2 activation; IL-2 activation reporter assay, cell-based qHTS; stimulated with anti-CD3/CD4/CD28 beads; in transgenic mouse T cells; activation, % (series mostly up to about 46 µM); hit rate 0.065% among 360,000; in the data active = activation above about 50%; inconclusive = mostly about 30% to 49%; note: 0% is about no effect
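Readout: EGFP and DsRed signals by fluorescent plate cytometry. Unstimulated transgenic mouse T cells received compound 60 min before antibody-bead stimulation, then incubated 18 h at 37 degrees C.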
miR-21 reporter: miR-21 reporter, rising signal. 340,000 tested, under 10 active. Potency, µM (highest dose often 38.3 µM), for the others: at the highest dose reporter change, positive = more light. HeLa miR-21 FLuc reporter, luciferase, 48 h. AID 2288; active = well fitted rising curve with a large enough effect; inconclusive = small, poorly fitted or top-dose-only effect; inactive = no such curve, though single readings can be large or run the other way;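 further: % of control where 0% means no effect; miR-21 action dims this reporter so a rising signal means less miR-21 action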
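HeLa miR-21-FLuc reporter line, endogenous miR-21; 2000 cells/well in DMEM/10% FBS; compound titration up to ~40uM final, 48 h, 37 degree Celsius; luciferase detection reagent, 15 min lysis, CCD luminescence.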
ClpP mod: qHTS Assay for Activators of ClpP; hit rate 1.9% among 340,000; ATP-dependent Clp protease proteolytic subunit (Bacillus subtilis (strain 168)), P80244; Potency, µM (top dose mostly 57.5 µM), without a hit: at the highest dose activity change, negative = active; purified B. subtilis ClpP, FRET peptide cleavage, 20 min; active = well fitted falling curve with a large enough effect; inconclusive = small, poorly fitted or top-dose-only effect; inactive = no such curve, though single readings can be large or run the other way; note: potency is the fitted concentration of half-maximal effect; the source files actives as falling curves though it sought activators and does not explain the sign; nearly all actives have a fitted effect of over 65% in size
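ClpP 10 microg/mL final, pH 8 Tris/KCl buffer with BSA, glycerol, Tween-20; compound pinned in; FRET-FV substrate; RT 20 min; Ex320/Em430; ΔFRET vs ADEP 5.8 microM, DMSO, no enzyme.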
A549 viability: kills or reduces viability of A549 cells in Nrf2 counter-screen; A549 ARE-Fluc cells, CellTiter-Fluor viability, 18-24 h; Potency, µM (doses to about 46 µM), for the others: at the top dose activity change, negative = cytotoxicity, most hits filed as inhibitors; hit rate 0.16% among 390,000; AID 504648; note: potency is the fitted concentration of half-maximal effect; % is set by controls: 0 for no effect and ±100 for the full control effect
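A549 ARE-Fluc cells in 5% FBS OPTI-MEM, 5000 cells/well, rested 2 h then exposed to compounds in concentration-response for 18-24 h at 37 °C. Viability by CellTiter-Fluor fluorescence (Ex 405/Em 525) after 30 min; luciferase luminescence (BugLite, 15 min, RT) read afterwards.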
Nrf2 ARE act: Nrf2 pathway activation | AREc32 ARE-luciferase reporter (MCF7-derived line), luminescence, 24 h | Potency, µM (series often up to 46.1 µM), for the others: top-dose activation, usual class: activators | hit rate 0.31% among 410,000 | AID 624171; note: potency is the fitted concentration of half-maximal effect; % of control where 0% means no effect; nearly all actives have a fitted effect of over 65% in size
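AREc32 cells carrying an ARE-driven firefly luciferase reporter were seeded at 1000 cells/well in OPTI-MEM with 5% FBS, then exposed to compound for 24 hr at 37 deg C. Luminescence was read with Steady-Glo after 30 min at RT.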
The depositor's hits bear a star; ? = inconclusive; nt = no result given; [ ] = dose if it differs, or a comment. Unless noted, calls come from the whole dose curve; as a rule, active = well fitted curve in the direction sought with a large enough effect; inconclusive = small, poorly fitted or top-dose-only effect, or another doubt; inactive = no such curve, though single readings can be large; an effect the other way counts as inactive or inconclusive.

1) Cc1cc(C)c(-c2csc(NC(=O)C3=NN(c4ccccc4)C(=O)CC3)n2)c(C)c1
2) Cc1cccc(C)c1-n1ncc(C(=O)N2CCN(c3ccccc3)CC2)c1C1CCN(C(=O)OC(C)(C)C)CC1
3) CC(=O)Nc1ccc(S(=O)(=O)N(C)CC(=O)OCC(=O)NNC(=O)c2ccccc2F)cc1
4) CC(=O)Nc1ccc(S(=O)(=O)N(C)CC(=O)OCC(=O)c2ccc[nH]2)cc1
5) CCOC(=O)c1ccc(NC(=O)CN(c2ccc(C)cc2)S(=O)(=O)c2ccc(OC)cc2)cc1
6) CCOC(=O)c1ccc(NC(=O)CN(C)S(=O)(=O)c2ccc(OC)cc2)cc1
screen / no.,1,2,3,4,5,6
Nrf2 block,?,-23%,2%,-7%,11%,-25%
IL-2 act,-4,nt,-3,-4,nt,70*
miR-21 reporter,17%,25%,nt,nt,-4%,-7%
ClpP mod,-1%,0%,11µM*,-1%,-7%,0%
A549 viability,-12%,-1%,-9%,-2%,2%,-2%
Nrf2 ARE act,7%,1%,-1%,0%,0%,0%

7) COC(=O)c1ccc(NC(=O)CN2CCCN(Cc3ccc(Cl)cc3)S2(=O)=O)cc1
8) CCn1cc(C(=O)O)c(=O)c2cc(OC)ccc21
9) CCCCNC(=O)c1cccc2c(=O)c(C)c(-c3ccccc3)oc12
10) CCCCN(C(=O)c1cccc2c(=O)c(C)c(-c3ccccc3)oc12)c1ccccc1
11) Cc1ccc(CCNC(=O)Cn2nc(-c3ccc(C)cc3)ccc2=O)cc1
12) CCOC(=O)N1CCN(C(=O)c2cn(CCOC)c(=O)c3c2c2ccccc2n3C)CC1
screen / no.,7,8,9,10,11,12
Nrf2 block,nt,3%,-19%,?,nt,-16%
IL-2 act,nt,2,-1,-3,nt,3
miR-21 reporter,0%,3%,-4%,?,7%,-10%
ClpP mod,-2%,32µM*,28µM*,0%,-25%,14µM*
A549 viability,0%,1%,-1%,0%,9%,-2%[1.84 µM]
Nrf2 ARE act,-1%,0%,0%,0%,1%,0%

Among those listed so far, three contain an aryl methoxy group:
5) CCOC(=O)c1ccc(NC(=O)CN(c2ccc(C)cc2)S(=O)(=O)c2ccc(OC)cc2)cc1
6) CCOC(=O)c1ccc(NC(=O)CN(C)S(=O)(=O)c2ccc(OC)cc2)cc1
8) CCn1cc(C(=O)O)c(=O)c2cc(OC)ccc21
screen / no.,5,6,8
Nrf2 block,11%,-25%,3%
IL-2 act,nt,70*,2
miR-21 reporter,-4%,-7%,3%
ClpP mod,-7%,0%,32µM*
A549 viability,2%,-2%,1%
Nrf2 ARE act,0%,0%,0%

Following part.
13) COc1ccccc1N1CCN(C(=O)c2cn(CC(C)C)c(=O)c3c2c2ccccc2n3C)CC1
14) COCCn1cc(C(=O)NCCN(C)C)c2c3ccccc3n(C)c2c1=O
15) COCCn1cc(C(=O)N2CCN(C)CC2)c2c3ccccc3n(C)c2c1=O
16) COCCn1cc(C(=O)NCc2cccs2)c2c3ccccc3n(C)c2c1=O
17) CC(C)Cn1cc(C(=O)N2CCN(c3cccc(Cl)c3)CC2)c2c3ccccc3n(C)c2c1=O
18) O=C(Nc1ccc(-c2cn3cccnc3n2)cc1)c1cc(Br)ccc1Cl
screen / no.,13,14,15,16,17,18
Nrf2 block,10%,4%,7%,10%,21µM*,-8%
IL-2 act,nt,2,-1,-1,nt,nt
miR-21 reporter,4%,-2%,-7%,0%,?,1%
ClpP mod,4%,4%,11µM*,20µM*,4%,?
A549 viability,3%,7%,0%[1.84 µM],2%[1.84 µM],?,5%
Nrf2 ARE act,1%,-1%,0%,0%,4%,-1%

19) Cc1nc2nc(SCC(N)=O)[nH]c2cc1Br
20) COc1ccc(C2N(Cc3ccccc3)CC(=O)N2/N=C(\C)c2ccccc2)cc1 (centres undefined)
21) COc1ccc(/C=N/N2C(=O)CN(C(=O)c3ccccc3)C2c2ccc(OC)cc2)cc1 (centres undefined)
22) Nc1cccc(S(=O)(=O)N2CCN(S(=O)(=O)c3c(F)cccc3F)CC2)c1
23) Cc1cccc(N2CC(C(=O)OCC(=O)c3ccc(OC(=O)c4cccs4)cc3)CC2=O)c1C (centres undefined)
24) c1ccc(CSc2ncnc3c2oc2ccccc23)cc1
25) c1coc(CSc2ncnc3c2oc2ccccc23)c1
screen / no.,19,20,21,22,23,24,25
Nrf2 block,?,26%,-29%,3%,-18%,?,?
IL-2 act,-1,-1,0,nt,1,4,-2
miR-21 reporter,-6%,-28%,-2%,nt,-11%,nt,-39%
ClpP mod,16µM*,16µM*,1%,nt,32µM*,-9%,nt
A549 viability,2%,13%,0%,-3%,1%,-4%,2%
Nrf2 ARE act,0%,3%,2%,nt,3%,0%,4.5µM*
